{"source": "patent US6626122B2", "about": "“Deactivatable biocides in ballast water” (Chevron U.S.A. Inc, priority 2001, dated 2003)", "tested_on": "bacterial inoculum", "type": "cell-based", "conditions": "for toxicity / delay of the onset of microbial growth: without glutaraldehyde", "experimental": "In all experiments, a 10:1 ratio of minimal media to Fischer-Tropsch diesel fuel were prepared and evaluated in 250 ml flasks.\nIn addition to these experiments, several controls were run without Glutaraldehyde as follows: […]", "note": "Where two headings read alike, the source gives them in different places.", "data": [{"smiles": "NCCO", "note": "[MEA, Monoethanolamine]", "values": [{"measurement": "Growth, MEA control without glutaraldehyde", "setting": "1 ppm MEA, Time 0 days", "value": "−"}, {"measurement": "Growth, MEA control without glutaraldehyde", "setting": "1 ppm MEA, Time 1 days", "value": "−"}, {"measurement": "Growth, MEA control without glutaraldehyde", "setting": "1 ppm MEA, Time 2 days", "value": "−"}, {"measurement": "Growth, MEA control without glutaraldehyde", "setting": "1 ppm MEA, Time 3 days", "value": "+"}, {"measurement": "Growth, MEA control without glutaraldehyde", "setting": "1 ppm MEA, Time 7 days", "value": "+"}, {"measurement": "Growth, MEA control without glutaraldehyde", "setting": "1 ppm MEA, Time 9 days", "value": "+"}, {"measurement": "Growth, MEA control without glutaraldehyde", "setting": "1 ppm MEA, Time 14 days", "value": "+"}, {"measurement": "Growth, MEA control without glutaraldehyde", "setting": "10 ppm MEA, Time 0 days", "value": "−"}, {"measurement": "Growth, MEA control without glutaraldehyde", "setting": "10 ppm MEA, Time 1 days", "value": "−"}, {"measurement": "Growth, MEA control without glutaraldehyde", "setting": "10 ppm MEA, Time 2 days", "value": "−"}, {"measurement": "Growth, MEA control without glutaraldehyde", "setting": "10 ppm MEA, Time 3 days", "value": "+"}, {"measurement": "Growth, MEA control without glutaraldehyde", "setting": "10 ppm MEA, Time 7 days", "value": "+"}, {"measurement": "Growth, MEA control without glutaraldehyde", "setting": "10 ppm MEA, Time 9 days", "value": "+"}, {"measurement": "Growth, MEA control without glutaraldehyde", "setting": "10 ppm MEA, Time 14 days", "value": "+"}, {"measurement": "Growth, MEA control without glutaraldehyde", "setting": "100 ppm MEA, Time 0 days", "value": "−"}, {"measurement": "Growth, MEA control without glutaraldehyde", "setting": "100 ppm MEA, Time 1 days", "value": "−"}, {"measurement": "Growth, MEA control without glutaraldehyde", "setting": "100 ppm MEA, Time 2 days", "value": "−"}, {"measurement": "Growth, MEA control without glutaraldehyde", "setting": "100 ppm MEA, Time 3 days", "value": "−"}, {"measurement": "Growth, MEA control without glutaraldehyde", "setting": "100 ppm MEA, Time 7 days", "value": "−"}, {"measurement": "Growth, MEA control without glutaraldehyde", "setting": "100 ppm MEA, Time 9 days", "value": "−"}, {"measurement": "Growth, MEA control without glutaraldehyde", "setting": "100 ppm MEA, Time 14 days", "value": "+"}, {"measurement": "Growth, MEA control without glutaraldehyde", "setting": "500 ppm MEA, Time 0 days", "value": "−"}, {"measurement": "Growth, MEA control without glutaraldehyde", "setting": "500 ppm MEA, Time 1 days", "value": "−"}, {"measurement": "Growth, MEA control without glutaraldehyde", "setting": "500 ppm MEA, Time 2 days", "value": "−"}, {"measurement": "Growth, MEA control without glutaraldehyde", "setting": "500 ppm MEA, Time 3 days", "value": "−"}, {"measurement": "Growth, MEA control without glutaraldehyde", "setting": "500 ppm MEA, Time 7 days", "value": "−"}, {"measurement": "Growth, MEA control without glutaraldehyde", "setting": "500 ppm MEA, Time 9 days", "value": "−"}, {"measurement": "Growth, MEA control without glutaraldehyde", "setting": "500 ppm MEA, Time 14 days", "value": "+"}, {"measurement": "toxicity / delay of the onset of microbial growth", "setting": "high levels in the control (100 ppm and higher)", "value": "toxic"}, {"measurement": "toxicity / delay of the onset of microbial growth", "setting": "low levels in the controls (less than 100 ppm)", "value": "not significantly toxic"}]}]}
